Drawing on patent US20170275302A1, “INHIBITORS OF THE RENAL OUTER MEDULLARY POTASSIUM CHANNEL” (Merck Sharp & Dohme Corp., priority 2014, published 2017), this text covers IC50 for one compound.

Protein sequences, listed by entry. Tags and fused reporters are not part of them.
UniProt P48048, whole entry: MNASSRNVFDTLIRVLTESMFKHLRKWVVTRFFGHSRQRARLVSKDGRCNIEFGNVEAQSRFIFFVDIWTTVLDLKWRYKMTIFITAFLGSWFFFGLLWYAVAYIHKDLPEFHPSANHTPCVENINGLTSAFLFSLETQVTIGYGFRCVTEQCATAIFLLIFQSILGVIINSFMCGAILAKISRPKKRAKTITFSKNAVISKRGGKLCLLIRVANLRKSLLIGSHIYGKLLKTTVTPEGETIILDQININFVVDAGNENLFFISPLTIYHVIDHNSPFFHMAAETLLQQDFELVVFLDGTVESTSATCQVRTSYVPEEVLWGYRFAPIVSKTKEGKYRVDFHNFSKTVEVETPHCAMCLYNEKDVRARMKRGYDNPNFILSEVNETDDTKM

pIC50: −log10 of the molar value.

This test concerns the target hROMK (hKir1.1) (Homo sapiens, UniProt P48048). The test can be described thus: Thallium Flux Assay (ROMK channel functional thallium flux assay, FLIPR-Tetra). To be noted: HEK293 cells stably expressing hROMK (hKir1.1); FluxOR thallium flux, 30 min compound incubation; concentration inhibiting 50% of ROMK thallium flux signal.

For `Cc1c([C@@H](O)CN2CCC3(CC2)CCN(c2ccc4c(c2)C[C@@H](C)OC4=O)C3)ccc2c1COC2=O`, the pIC50 (commonly the negative decadic logarithm of the IC50, by convention in mol/L) is 7.03.
